Among the data in ChEMBL document CHEMBL4043138, “Synthesis of antimalarial amide analogues based on the plant serrulatane diterpenoid 3,7,8-trihydroxyserrulat-14-en-19-oic acid” (Bioorg Med Chem Lett, 2017) are Ratio IC50 values, retold here.

This experiment is described as follows: Selectivity ratio of IC50 for Plasmodium falciparum Dd2 to IC50 for Plasmodium falciparum 3D7. Type of experiment: functional.

Each structure is given as a SMILES string.

In the case of `C[C@H]1[C@H](OC(=O)CCC(=O)O)O[C@@H]2O[C@@]3(C)CC[C@H]4[C@H](C)CC[C@@H]1[C@@]24OO3` [ARTESUNATE], the Ratio IC50 was 0.82.
